## Apparent affinities of Ab-14 variants for a coronavirus HR2 peptide

The measurements come from Li et al. 2023 (doi:10.1038/s41467-023-39022-2) through the FLAb antibody collection.

All variants were tested on one target, the spike HR2 peptide PDVDLGDISGINAS (SARS-CoV-2).

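The parent was found by panning a naive human phage display library on the peptide. These sequences belong to a second round, designed from the earlier measurements on random variants of the parent. Several design methods are mixed in this list. Affinity was read by AlphaSeq, a pooled yeast mating assay with surface-displayed partners. The frequency of each diploid, read from paired DNA barcodes, reflects how well the two displayed proteins bind. Scores were corrected for input abundance and mapped to Kd with protein pairs of known affinity run in the same pool. Mating was done six times.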

Ab-14 is the parent antibody, in scFv form: VH, then three GGGGS repeats, then VL. The heavy chain is unchanged in all variants.
VH: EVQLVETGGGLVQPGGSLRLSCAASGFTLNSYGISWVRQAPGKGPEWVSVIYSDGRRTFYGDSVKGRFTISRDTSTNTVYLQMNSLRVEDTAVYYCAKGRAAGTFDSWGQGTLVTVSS
VL: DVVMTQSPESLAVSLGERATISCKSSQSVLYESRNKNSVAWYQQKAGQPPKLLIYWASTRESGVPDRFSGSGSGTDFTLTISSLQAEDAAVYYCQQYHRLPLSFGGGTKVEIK

Each variant is given by its three light chain CDRs, as the data file delimits them; those of the parent are KSSQSVLYESRNKNSVA, WASTRES, QQYHRLPLS.
Affinities are written as log10 Kd with Kd in nM; a lower number is a better binder.
Replicates are averaged; those with no signal do not enter the mean.
Where no diploid with the target was found in any replicate, the entry reads "no signal": below detection, most likely a poor binder, though not proof of it.
Background: pairings of all light chain designs with three empty control strains gave a value in 4% of cases (median 2.64, 5th percentile 1.59). Values in that range, when seen in few replicates, are hard to tell from nonspecific mating.
In the paper, a design with two or fewer of six values counts as a poor binder.
The range of this assay differs from that of the first round, and the authors advise against merging the two.

CDR-L1	CDR-L2	CDR-L3	mean, log10 nM	replicates with signal
MISQLWNMGTFAINSVA	QAEIRNA	QQYDRLPLA	1.45	3 of 6
KLEQSTKYESRNQNSVA	WASTRES	QQYHRLPLS	2.20	1 of 6
MFSSLMEYGSRYKNSVA	QASTRED	QQYHWLPLS	0.68	5 of 6
FSSQSVLYESRNCNNVA	HAVTRES	QQYHRLPLS	1.22	6 of 6
TLHANIEYGGGMWSSIA	DNVQRAD	QYYQRLPLG	1.59	6 of 6
KSSQSHLYENVNKNSVA	MASTRES	QAYHRLPLS	0.89	6 of 6
KLSQSFLYESRNVNSVA	GASTRES	QQYHRLPLS	-0.19	6 of 6
KLMQSPEYESRNKNSVA	NASQREE	QQYHRLPLS	0.58	6 of 6
HIGLATMLQETVRNSVA	NNSTRES	QQYDRLPLS	1.34	6 of 6
KIQDNLGELLQQINSVA	STEEKSD	QSYMRLPLS	1.49	6 of 6
KVSQLDLGGSRNKNSVA	HAHTRES	QQYHRLPLS	1.21	6 of 6
KVSQSWLYESRNKNSVA	DASTRES	QQYHRLPLS	-0.26	6 of 6
KVSQSVLMESCNVNSVA	YASTRED	QQYHRLPLS	1.16	6 of 6
KWFQSVLMESMLVNSVA	NASQRES	QQYHRLPLS	1.62	5 of 6
KSSQSVKIESRNKNSVA	DASTRES	QQYHRLPLS	0.28	6 of 6
KLGSSTRFESSNKASIA	DNSTREA	QQYHRLPLS	1.52	4 of 6
MISQLYNMGQFAINSVA	QASTRHE	QQYDRLPLM	1.02	5 of 6
KVPQSVLYESRNKNSVA	HASTRED	QSYHRLPLY	0.67	6 of 6
TLLYGVTEAAKHGKAIA	GNEERAQ	QQYFRLPLS	0.32	6 of 6
KLDSHEQHGTAQNSAMA	SASVSTQ	QQYSRLPLS	0.30	6 of 6
KSSQSVLYESRNKNSVA	WASQRES	QQYARLPLS	1.29	6 of 6
KCSQSVLYESRNKNSVA	QASTRES	CQYHRLPLS	1.03	6 of 6
KLTEMFQHTSKQKNNIA	ERSTREE	QQYHHLPLS	0.29	6 of 6
KSSQSVKQESRNKNSVA	DASTRES	QQYHRLPLS	0.05	6 of 6
TISQVMNTLTRNGNNVA	DLQEREK	QQYFRLPLT	-0.24	6 of 6
KVSQSVDYESRNKNSVA	DASTRES	QQYHRLPLS	0.07	6 of 6
KCSQSVVYESVNTNSVA	WASTRES	QQYHRLPLS	1.96	5 of 6
MLSQMWGIGMKAKNSVA	QANMRFN	QQYDRLPLI	1.26	6 of 6
KLGGEQQNSTYEMDNVA	DVNTTFE	QHYSRLPLT	no signal	0 of 6
KSSVSVLYDSENKNPVA	WASTHES	QQYHRLPLS	no signal	0 of 6
KLYFNVGTMAHNTQNIA	DMERRED	QQYHRLPLS	0.34	6 of 6
NVHALDAISQEFQNNVA	EQDCRDA	QQYFRLPLA	2.06	6 of 6
KSSQSYHYGSRNKNSVA	GASTRES	QQYHRLPLS	1.10	6 of 6
KLSQSHLYESRNKNSVA	QASTRES	QQYHRLPLS	-0.08	6 of 6
KISGSYLYESRNWNAVA	EASQREQ	QQYHRLPLS	0.19	6 of 6
KSSQSTLYENHNKNSVA	WASTRES	QQYHRDPLS	2.50	1 of 6
IISGSMLMESRNKNSVA	NAETRPY	QHYDRLPLS	1.95	6 of 6
KFSQSVLYESRNKNSVA	NAVTRET	QQYHRLPLS	-0.45	6 of 6
QSSQSVGYESRNKNSVA	WASTRES	QQYHELPLS	2.24	5 of 6
ASSLSVLYESRNKNSVA	WASTRES	QQYHRLPNS	no signal	0 of 6
TLGTSTLEESRNKNSVA	EMSLRES	QSYNRLPLS	1.00	6 of 6
MISQLYNMGQFAINSVA	QASERNT	QQYDRLPLI	2.61	1 of 6
KIGMTLNTLMHKKNNVA	DLVMREN	QQYFRLPLS	1.32	6 of 6
KESQSMLYESRNYNSVA	QASTRES	DQYHRLPLS	no signal	0 of 6
KSEQSVLYESRNKNSVA	WASTRES	QQYHRLPLS	1.89	1 of 6
KMEQGDLYESRNKGSVA	GASVRES	QQYHRLPLS	-0.58	6 of 6
KFSQSYLYESRNKNAVA	NASQRES	QQYHRLPLS	-0.43	6 of 6
KLTAAPNDYGQNRSAIA	EEVNSLQ	QQYHHLPLS	1.81	1 of 6
KVSQSHLYESRNKNSVA	EASTRES	QSYHRLPLS	-0.08	6 of 6
KMMQSQLYEDRMSNAVA	NASQRMS	QQYHRLPLS	-0.08	6 of 6
HVGHATMLEETVRNSVA	NNSTRES	QQYDRLPLS	2.28	6 of 6
KLSQSWLYESRNSNSVA	NASTRES	QDYHRLPLS	-0.08	6 of 6
KIGNMVDYMSATHSSVA	QTSTREE	QQYHRLPLS	0.26	6 of 6
KLSQSWLMESRNKNQVA	HASTRMS	QQYHRLPLS	0.97	6 of 6

For reference, 3 entries of the list once more:

CDR-L1,CDR-L2,CDR-L3,"mean, log10 nM",replicates with signal
KLGSSTRFESSNKASIA,DNSTREA,QQYHRLPLS,1.52,4 of 6
KFSQSYLYESRNKNAVA,NASQRES,QQYHRLPLS,-0.43,6 of 6
KLYFNVGTMAHNTQNIA,DMERRED,QQYHRLPLS,0.34,6 of 6